Measured values: PMC5365662, “A Short Double-Stapled Peptide Inhibits Respiratory Syncytial Virus Entry and Spreading” (Antimicrobial Agents and Chemotherapy, 2017)

Legend:
[1] = Far-UV circular dichroism, α-helical content; format: physicochemical; details: CD
Protocol: The circular dichroism spectra were acquired on a Chirascan spectropolarimeter. The samples were prepared in 10 mM phosphate buffer, pH 7.5, at a peptide concentration of 50 μM. Data were recorded at 25°C by step scan from 180 nm to 260 nm in a 0.5-mm path length quartz cell using 1-nm wavelength increments and a response time of 1 s. The data were converted to per residue molar ellipticity units [θ] (degree per square centimeter per decimole per residue) and smoothed using the Igor Pro software. The percentage of helicity was calculated as described previously ([35]).

[2] = circular dichroism; details: 10 mM phosphate; pH 7.5; 25 °C; 50 uM
[3] = tested on: recombinant GFP-expressing RSV (strain A2) in A549 cells; format: cell-based, human respiratory syncytial virus; details: GFP-positive cells by FACS 24 h p.i.
Protocol: A549 cells were infected with a recombinant green fluorescent protein (GFP)-expressing RSV (strain A2) ([23]), and the inhibitory activity of the peptide was quantified by flow cytometry.
Each peptide was diluted 3 times by 2-fold serial dilutions. eGFP RSV virus at an MOI of 0.5 was used for the infection, and GFP-positive cells were counted by FACS analysis 24 h p.i. The GFP data were normalized to the fluorescence values observed with virus only and plotted as percent inhibition.
Serial 4-fold dilutions of inhibitors were mixed with eGFP-encoding RSV virus ([23]) with a volume of virus required to achieve approximately 50% of infection in medium containing 2% fetal calf serum. The resulting mixture was added to 24-well plates containing A549 cells. Cells were incubated for 2 h at 37°C, the medium was replaced, and cells were incubated for an additional 24 h. Cells were treated with 300 μl of trypsin for 10 min at 37°C, and the detached cells were diluted in 1 ml of culture medium. Following centrifugation at 1,700 rpm, the pellet was resuspended in 300 μl of PBS–1% fetal bovine serum (FBS) (vol/vol) and GFP-positive cells were counted by fluorescence-activated cell sorter (FACS) analysis. The GFP data were normalized to the fluorescence value observed with virus only. The resulting inhibition curves were fitted in Igor Pro as described above.

| Compound | θ208/θ222 molar ellipticity ratio ([1]; indicator of α-helical stability) | helicity [2] | inhibition of RSV-eGFP infection (in words) [3] | % Helicity ([1]; Table 2, 10 mM phosphate buffer pH 7.5, 50 μM peptide, 25°C) |
| --- | --- | --- | --- | --- |
| CC[C@H](C)[C@@H]1NC(=O)[C@H](Cc2ccccc2)NC(=O)[C@@](C)(NC(=O)[C@H](CC(C)C)NC(=O)[C@H](CO)NC(=O)[C@H](CCC(N)=O)NC(=O)[C@H](CCC(=O)O)NC(C)=O)CCCC=CCCC[C@@](C)(C(=O)N[C@@H](CO)C(=O)N[C@@H](CC(=O)O)C(=O)N[C@@]2(C)CCCC=CCCC[C@@](C)(C(=O)N[C@H](C(N)=O)C(C)C)NC(=O)[C@H](Cc3c[nH]cn3)NC(=O)[C@H](CC(C)C)NC(=O)[C@H](CC(C)C)NC2=O)NC(=O)[C@H](CCCNC(=N)N)NC1=O [Peptide 3ac] | ~1 | 47.2% | capable of blocking viral infection of cells similarly to T108 |  |
| CC[C@H](C)[C@@H]1NC(=O)[C@H](CCCCN)NC(=O)[C@](C)(NC(C)=O)CCCCCCC=CCCC[C@@](C)(C(=O)N[C@@H](Cc2ccccc2)C(=O)N[C@H](C(=O)N[C@@H](CCCNC(=N)N)C(=O)N[C@]2(C)CCCCCCC=CCCC[C@@](C)(C(=O)N[C@H](C(N)=O)C(C)C)NC(=O)[C@H](Cc3c[nH]cn3)NC(=O)[C@H](CC(C)C)NC(=O)[C@H](CC(C)C)NC(=O)[C@H](CCC(=O)O)NC(=O)[C@H](CC(=O)O)NC(=O)[C@H](CO)NC2=O)[C@@H](C)CC)NC(=O)[C@H](CC(C)C)NC(=O)[C@H](CO)NC(=O)[C@H](CCC(N)=O)NC(=O)[C@H](CC(N)=O)NC1=O [Peptide 4ef] |  | 50.7% |  | 50.7% |
